Measurements reported in ChEMBL document CHEMBL1139225, “Metabolism-based identification of a potent thrombin receptor antagonist” (J Med Chem, 2007).

Legend:
Rattus norvegicus [1] = assay: Drug level in rat plasma at 30 mg/kg after 8 day
Rattus norvegicus [2] = assay: Drug level in rat plasma at 30 mg/kg after 1 day

C[C@H]1OC(=O)[C@@H]2C[C@@H]3C[C@H](O)CC[C@H]3[C@H](/C=C/c3ccc(-c4cccc(C(F)(F)F)c4)cn3)[C@H]12
AUC at 192 h (Rattus norvegicus [1]): 21300 ng·h/mL
AUC at 24 h (Rattus norvegicus [2]): 21700 ng·h/mL
